Consider 1 compound from EP4725946A1, “IRAK4 DEGRADATION AGENT AND USE THEREOF” (Guangzhou Unirise Pharmaceutical Co., Ltd., priority 2023, dated 2024).

Chains of the proteins cited; added tags and fusions are not shown.
UniProt Q9NWZ3, whole entry: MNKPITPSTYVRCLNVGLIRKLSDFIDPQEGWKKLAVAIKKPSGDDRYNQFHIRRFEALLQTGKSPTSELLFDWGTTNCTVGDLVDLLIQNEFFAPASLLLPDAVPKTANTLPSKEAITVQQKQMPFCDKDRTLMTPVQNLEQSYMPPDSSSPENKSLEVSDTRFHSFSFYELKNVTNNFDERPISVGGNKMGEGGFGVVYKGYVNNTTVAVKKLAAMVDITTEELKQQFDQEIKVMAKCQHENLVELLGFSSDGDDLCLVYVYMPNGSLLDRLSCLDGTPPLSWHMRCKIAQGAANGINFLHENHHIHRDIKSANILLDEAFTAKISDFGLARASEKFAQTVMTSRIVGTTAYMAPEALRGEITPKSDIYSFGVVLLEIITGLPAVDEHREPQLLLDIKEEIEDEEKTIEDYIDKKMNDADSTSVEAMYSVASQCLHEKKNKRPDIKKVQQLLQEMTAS

The target in the experiment is IRAK4 protein (Homo sapiens, UniProt Q9NWZ3). The experiment is described as follows: IRAK4 Degradation Assay in THP-1 Cells (Western Blot). The experiment is classed as cell-based. As to conditions: 24 hours, 0.0128 to 1000 nM, IRAK4 protein level by Western Blot, tested form: free base. (A western blot detects proteins with antibodies after separation by electrophoresis.)

One may read the DC50 as the midpoint of the concentration-degradation curve. A low value points to a more potent degrader. In turn, `Cn1c(=O)n(C2CCC(=O)NC2=O)c2cccc(C#CCOC3CCC(CN4CCC5(Cc6cc(NC(=O)c7coc8cccnc78)c(N7CCC(CO)CC7)cc6O5)C4)CC3)c21` (centres unmarked) had a 50% degradation concentration (DC50) of 3.3 nM and a Dmax% of 88.1%.
